# Target: IRAK4 (Homo sapiens, UniProt Q9NWZ3)
# Protein sequences, listed by entry. Tags and fused reporters are not part of them.
# UniProt Q9NWZ3, whole entry: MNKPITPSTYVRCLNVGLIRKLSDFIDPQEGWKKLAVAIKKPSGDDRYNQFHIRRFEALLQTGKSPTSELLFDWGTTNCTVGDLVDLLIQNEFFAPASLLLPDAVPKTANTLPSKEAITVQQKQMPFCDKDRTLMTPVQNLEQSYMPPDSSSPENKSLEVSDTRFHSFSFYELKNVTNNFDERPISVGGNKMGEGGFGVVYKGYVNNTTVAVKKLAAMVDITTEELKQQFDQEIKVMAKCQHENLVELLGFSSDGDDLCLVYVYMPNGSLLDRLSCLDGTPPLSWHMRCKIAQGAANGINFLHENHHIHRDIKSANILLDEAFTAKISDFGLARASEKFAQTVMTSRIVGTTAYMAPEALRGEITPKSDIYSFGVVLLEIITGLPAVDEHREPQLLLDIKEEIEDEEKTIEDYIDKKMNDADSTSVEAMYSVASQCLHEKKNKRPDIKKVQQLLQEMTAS
# Assay: IRAK4 MSD Degradation in OCI-LY10
# Type: cell-based
# Conditions: read-out: IRAK4 degradation in OCI-LY10 at 4 hrs: DC50, OCI-LY10 cells, 4 hrs incubation
row,DC50 [nM],SMILES
1,> 200,CN(C[C@H]1CC[C@H](n2cc(NC(=O)c3cnn4cccnc34)c(C(F)F)n2)CC1)C1CCN(c2cccc3c2n(C)c(=O)n3C2CCC(=O)NC2=O)CC1(F)F (some centres unmarked) [I-376]
2,> 200,Cn1c(=O)n(C2CCC(=O)NC2=O)c2cccc([C@H]3C[C@H](C(=O)N4CCN(C[C@H]5CC[C@H](n6cc(NC(=O)c7cnn8ccc(N9C[C@H]%10C[C@@H]9CO%10)nc78)c(C(F)F)n6)CC5)CC4)C3)c21 (some centres unmarked)
3,< 10,O=C1CCN(c2cncc3c(C#CCN4CCN(C[C@H]5CC[C@H](n6cc(NC(=O)c7cnn8ccc(N9C[C@H]%10C[C@@H]9CO%10)nc78)c(C(F)F)n6)CC5)CC4)cccc23)C(=O)N1

row,SMILES,DC50 [nM]
1,Cn1c(=O)n(C2CCC(=O)NC2=O)c2cccc(C#CCN3CCN(C[C@H]4CC[C@H](n5cc(NC(=O)c6cnn7ccc(N8CC8)nc67)c(C(F)F)n5)CC4)CC3)c21 (some centres unmarked),10 to 100

# Same assay, conditions: read-out: IRAK4 degradation in OCI-LY10 at 24 hrs: DC50, OCI-LY10 cells, 24 hrs incubation
row,DC50 [nM],SMILES
1,10 to 100,CN(C[C@H]1CC[C@H](n2cc(NC(=O)c3cnn4cccnc34)c(C(F)F)n2)CC1)C1CCN(c2cccc3c2n(C)c(=O)n3C2CCC(=O)NC2=O)CC1(F)F (some centres unmarked) [I-376]
2,< 10,Cn1c(=O)n(C2CCC(=O)NC2=O)c2cccc([C@H]3C[C@H](C(=O)N4CCN(C[C@H]5CC[C@H](n6cc(NC(=O)c7cnn8ccc(N9C[C@H]%10C[C@@H]9CO%10)nc78)c(C(F)F)n6)CC5)CC4)C3)c21 (some centres unmarked)
3,< 10,O=C1CCN(c2cncc3c(C#CCN4CCN(C[C@H]5CC[C@H](n6cc(NC(=O)c7cnn8ccc(N9C[C@H]%10C[C@@H]9CO%10)nc78)c(C(F)F)n6)CC5)CC4)cccc23)C(=O)N1

row,SMILES,DC50 [nM]
1,Cn1c(=O)n(C2CCC(=O)NC2=O)c2cccc(C#CCN3CCN(C[C@H]4CC[C@H](n5cc(NC(=O)c6cnn7ccc(N8CC8)nc67)c(C(F)F)n5)CC4)CC3)c21 (some centres unmarked),10 to 100

# Source: patent US12091411B2, “IRAK degraders and uses thereof” (Kymera Therapeutics, Inc., priority 2022, dated 2024)
